# AlphaSeq binding of Ab-14 heavy chain variants to a spike HR2 peptide

From the AlphaSeq antibody data of Li et al. 2023 (doi:10.1038/s41467-023-39022-2), copy in the FLAb collection.

Target: peptide PDVDLGDISGINAS, taken from heptad repeat 2 (HR2) of SARS-CoV-2 spike.

The variants keep the light chain, the linker and the frameworks of Ab-14 (scFv order VH, the linker GGGGSGGGGSGGGGS, VL).
VH: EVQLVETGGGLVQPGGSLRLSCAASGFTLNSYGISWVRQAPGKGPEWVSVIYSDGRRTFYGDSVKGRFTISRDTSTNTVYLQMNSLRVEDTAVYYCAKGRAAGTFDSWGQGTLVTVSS
VL: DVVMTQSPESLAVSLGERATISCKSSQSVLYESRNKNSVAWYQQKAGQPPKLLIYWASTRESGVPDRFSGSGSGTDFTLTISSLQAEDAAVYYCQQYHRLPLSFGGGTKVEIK

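Phage display of a naive human antibody library on the peptide gave the parent. This is the validation round: designs drawn from the data on random variants, tested in the same kind of assay. Group labels follow the data file (Ctrl: baseline library sampled from a position-specific scoring matrix, with some repeated check sequences; Rand: our label for a block that the file lists under HC and that is probably the random mutants of the ten best first-round binders; GP: Gaussian process model; GPLM: also part of the Gaussian process libraries; HC: hill climbing; Gen: genetic algorithm; Gibbs: Gibbs sampling; a sequence that several methods proposed may carry one label only). Affinity was read by AlphaSeq, a pooled yeast mating assay with surface-displayed partners. The frequency of each diploid, read from paired DNA barcodes, reflects how well the two displayed proteins bind. A regression on co-assayed BCL2-family reference pairs converts the normalised counts of each replicate to an apparent Kd. Mating was done six times.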

Variants are written as CDR1, CDR2 and CDR3 of the heavy chain (limits as in the source). Parent: GFTLNSYGIS, VIYSDGRRTFYGDSVK, GRAAGTFDS.
Variants here have at most six changes.
Values are log10 of the apparent Kd in nM; lower means stronger binding.
Averages over replicates are reported, and they cover detected replicates only.
A pair that was not seen in any replicate is written "nd"; this usually means weak binding, but a binder can also be missed.
Values of this round are not directly comparable with the first-round values of the same sequences.
Of ten entries with the parent sequence, four were seen in most replicates (averages 0.34 to 2.37), three in one and three in none, so single entries are noisy.
The authors' rule: three or more of the six replicates give a measured affinity, fewer mean a poor binder.
As a blank, each scFv also met three strains without target: over all heavy chain designs, 1% of these pairings were detected, typically at 2.08 and seldom below 0.84.

With GFTLNEYGIS / VIYSDGRRTFYGDSVK / GRFAGTFDT [GPLM_HC] the result was 0.35 (6 of 6 replicates). Variant KFTLNDYGIS / VINSDGRRTFYGDSVK / GRAALTSIS [Rand] showed nd (0 of 6 replicates). With GFTINSYGIS / VIYSDGRRTFYADSVK / GRAAGTFDW [Ctrl] the result was 1.87 (1 of 6 replicates). With YFSLNDYGIS / VIYSDGRRTFYGDSVK / GRTAGTFDT [GP_Gibbs] the result was 1.14 (6 of 6 replicates). Variant GFELNSYGIS / VIYSDGRRTFYGDDVK / GITAGTFDS [GP_Gibbs] gave 0.43 (6 of 6 replicates).

For GFQLNSYGIS / VIYSDGRRTFYADSVK / GKAAGTFDL [Ctrl], the assay gave 1.24 (6 of 6 replicates). For GFDLNEYGIS / VIYSDGRRTFYGDSVK / GRAAGTFDI [GP_HC], the assay gave 0.28 (6 of 6 replicates). With GFGLNEYGIS / VIYSDGRRTFYHDSVK / GNAAGTFDS [GP_Gen] the result was 0.07 (6 of 6 replicates). Variant GFQLNDYGIS / VIYSDGRRTFYKDSVK / GRTAGTFDS [GP_Gen] showed 0.47 (6 of 6 replicates). With GFDLNSYGIS / VIYSDGWRTFYIDSVK / GRTAGTFDS [GP_Gibbs] the result was 1.64 (5 of 6 replicates).

With GFTLNSYGIS / VIYSDGRRTFYIDSVK / GRSAGTFDS [GP_HC] the result was 2.66 (2 of 6 replicates). With GFTLNSYGIS / VIYSDGRRTAYIGSVA / GLAAGEFDS [Ctrl] the result was nd (0 of 6 replicates). Variant GFSLNSYGIS / VIYSDGRRTFYGDSVK / GRVAGTFDQ [GPLM_Gen] showed 0.94 (6 of 6 replicates). Variant GFTLCDYGIS / VIYSDGRRTQYIDSVK / GRAAGTFDS [Rand] showed 1.99 (2 of 6 replicates). With GFTLESYGIS / VIYSDGRRVFYNDSVK / GRAAGTFDS [Ctrl] the result was 1.71 (5 of 6 replicates).

For GFNLNSYGIS / VIYSDGRRTFYDDSVK / GRQAGTFDS [GPLM_Gibbs], the assay gave 0.41 (6 of 6 replicates). With GRTLNDYGIS / VIYSDGERTFYGDSVK / GRAAGTFDS [Ctrl] the result was nd (0 of 6 replicates). Variant GFSLNSYGIS / VIYSDGRRTFYGDSVK / GRAAITTDS [Ctrl] showed nd (0 of 6 replicates). Variant GFTLRSYGIS / VIYSDGRRTFYGDSVK / GRAPGTFDS [Ctrl] gave 2.30 (1 of 6 replicates). With GFSLNSYGIS / VIYSDGRRTFYGDNVK / GITAGTFDS [GP_Gen] the result was 0.18 (6 of 6 replicates).

Variant GFDLNSYGIS / VIYSDGRRTFYSDSVK / GKAAGTFDV [GP_Gen] showed 0.71 (6 of 6 replicates). Variant GFTLNEYGIS / VIYSDGRRTFYTDSVK / GRATGTFDS [Ctrl] gave nd (0 of 6 replicates). For GFTLESYGIS / VIYADGRRTFYGDWVK / GRAAGTFDS [GP_HC], the assay gave 1.50 (4 of 6 replicates). Variant GFDLNSYGIS / VIYSDGRRTFYGDMVK / GRNAGTFDS [GP_Gibbs] gave 0.62 (6 of 6 replicates). Variant GFSLNSYGIS / VIYSDGRRTFYGDSVK / GMQAGTFDS [GP_Gen] gave 0.20 (6 of 6 replicates).

With GFTLNSYGIS / VIYSDGRRTAYGDSVK / GRTAGTFDS [GPLM_Gen] the result was 1.50 (6 of 6 replicates). Variant YFTLNEYGIS / VIYSDGRRTFYGDSVK / GQAAGTFDK [GP_Gibbs] gave 0.87 (4 of 6 replicates). Variant KFSLNSYGIS / VIYSDGRRTFYDDSVK / GRTAGTFDS [GPLM_Gen] gave 1.27 (3 of 6 replicates). For GFSLNSYGIS / VIYSDGRRTFYTDSVK / GMFAGTFDS [GP_HC], the assay gave 0.79 (6 of 6 replicates). Variant GRTLSEYGIS / VIYSDGRRTFYGDSVK / ARAALTFDS [Ctrl] showed nd (0 of 6 replicates).

Variant GFTINSYGIS / VIYSDGRRTFYHDSVK / IRAAGTTDS [Ctrl] showed nd (0 of 6 replicates). Variant GFTLNEYGIS / VIYSDGRRTFYADSVK / GRAAVTFDK [GP_HC] showed 0.21 (6 of 6 replicates). Variant GFSLNSYGIS / VIYSDGRRTFYGDSVK / GRQAGTFDK [GPLM_Gibbs] gave 0.32 (5 of 6 replicates). For GFTLNEYGIS / VIYSDGRRTFYGDSVK / GRAAETFCV [GP_HC], the assay gave 1.51 (3 of 6 replicates). Variant GFVLNDYGIS / VIYSDGRRTFYGDSVK / GRMAGTFDS [GPLM_HC] showed 0.90 (6 of 6 replicates).

With GFTLNDYGIS / VIYSDGRRTFYDDSVK / GRAAGTFRS [GP_HC] the result was nd (0 of 6 replicates).

From the list, the first 5 with no signal in any replicate:

| CDR-H1 | CDR-H2 | CDR-H3 | group | log10 Kd (nM), mean | replicates with signal |
|---|---|---|---|---|---|
| KFTLNDYGIS | VINSDGRRTFYGDSVK | GRAALTSIS | Rand | nd | 0/6 |
| GFTLNSYGIS | VIYSDGRRTAYIGSVA | GLAAGEFDS | Ctrl | nd | 0/6 |
| GRTLNDYGIS | VIYSDGERTFYGDSVK | GRAAGTFDS | Ctrl | nd | 0/6 |
| GFSLNSYGIS | VIYSDGRRTFYGDSVK | GRAAITTDS | Ctrl | nd | 0/6 |
| GFTLNEYGIS | VIYSDGRRTFYTDSVK | GRATGTFDS | Ctrl | nd | 0/6 |